# TCR activator: activators of T cell receptors. primary human leukocytes, anti-CD3, IL-2 HTRF, 48 h. Potency, µM (series often up to 9.22 µM), for inactives: top-dose activation of IL-2 secretion, actives largely listed as activators. 330,000 tested, under 10 active; also: % of control where 0% means no effect
#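 Using a-CD3 beads without co-stimulation, primary human leukocytes were exposed to compounds for 48 hr. An HTRF IL-2 kit measured the cytokine, with europium-to-d2 energy transfer producing emission at 665nm upon 320nm excitation.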
# Nrf2 ARE act: activates Nrf2 signaling; AREc32 ARE-luciferase reporter (MCF7-derived line), luminescence, 24 h; Potency, µM (doses to about 46.1 µM), for inactives: at the top dose activation, hits mostly activators; 410,000 compounds, 0.31% hits; AID 624171; also: potency is read from the fitted curve at half-maximal effect; % of control where 0% means no effect; nearly all actives have a fitted effect of over 65% in size
#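 Quantitative high-throughput format: AREc32 reporter cells, 1000 per well, received compound by pin transfer and were incubated 24 hr at 37 deg C, 5% CO2, before Steady-Glo luminescence detection.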
# A549 tox: A549 cytotoxicity, counter-screen for Nrf2 inhibitors | A549 ARE-Fluc cells, CellTiter-Fluor viability, 18-24 h | Potency, µM (series often up to 46 µM), for the others: top-dose activity change, negative = cytotoxicity, most hits filed as inhibitors | 390,000 compounds, 0.16% hits | AID 504648; also: potency is read from the fitted curve at half-maximal effect; % is scaled to controls: 0 for no effect and ±100 for the full control effect
#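 A549 ARE-Fluc cells in 5% FBS OPTI-MEM, 5000 cells/well, rested 2 h then exposed to compounds in concentration-response for 18-24 h at 37 °C. Viability by CellTiter-Fluor fluorescence (Ex 405/Em 525) after 30 min; luciferase luminescence (BugLite, 15 min, RT) read afterwards.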
# ClpP mod: qHTS Assay for Activators of ClpP. purified B. subtilis ClpP, FRET peptide cleavage, 20 min. Potency, µM (doses to about 57.5 µM), inactives show at the top dose activity change, negative = active. 340,000 compounds, 1.9% hits. AID 651965, 2013; active = well fitted falling curve with a large enough effect; inconclusive = small, poorly fitted or top-dose-only effect; inactive = no such curve, though single readings can be large or run the other way; also: potency is read from the fitted curve at half-maximal effect; the source files actives as falling curves though it sought activators and does not explain the sign; nearly all actives have a fitted effect of over 65% in size
#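 FRET quenching reversal measured ClpP activation: 10 microg/mL B. subtilis ClpP at pH 8 with the FRET-FV decapeptide, read at 430 nm after 320 nm excitation. The 20-min minus 0-min signal was scaled between DMSO/no-enzyme wells and ADEP (5.8 microM final).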
# Nrf2 block: Nrf2 pathway inhibition. A549 ARE-Fluc reporter, luciferase luminescence, 18-24 h. 360,000 compounds, 2.1% hits. Potency, µM (doses to about 46 µM), for the others: at the top dose activity change, negative = inhibition, hits mostly inhibitors; also: potency is read from the fitted curve at half-maximal effect; % is scaled to controls: 0 for no effect and ±100 for the full control effect; nearly all actives have a fitted effect of over 60% in size
#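 Nrf2 activity is the BugLite luminescence, read 15 min after reagent at room temperature, following CellTiter-Fluor cytotoxicity readout (30 min, 37C). Compound titrations were applied for 18-24 h to 5000 A549 ARE_Fluc cells/well in 5% FBS OPTI-MEM.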
# miR-21 FLuc: raises the signal of a miR-21 reporter; HeLa miR-21 FLuc reporter, luciferase, 48 h; Potency, µM (top dose mostly 38.3 µM), for inactives: at the highest dose reporter change, positive = more light; AID 2288; 340,000 tested, under 10 active; active = well fitted rising curve with a large enough effect; inconclusive = small, poorly fitted or top-dose-only effect; inactive = no such curve, though single readings can be large or run the other way;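 note: % of control where 0% means no effect; miR-21 action dims this reporter so a rising signal means less miR-21 action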
#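 Compounds were titrated across several concentrations (up to approximately 40 uM) and incubated 48 hours with HeLa miR-21-FLuc reporter cells (miR-21 target sequence downstream of FLuc, endogenous miR-21). Readout was firefly luciferase luminescence after lytic detection reagent.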
# Numbers without * were called inactive; ? = inconclusive; . = no result; [ ] = remark or other dose. A selection: hits, their analogues and other compounds. The true share with any hit is near 3.7%. Unless noted, calls follow the shape of the dose curve; as a rule, active = well fitted curve in the direction sought with a large enough effect; inconclusive = small, poorly fitted or top-dose-only effect, or another doubt; inactive = no such curve, though single readings can be large; an effect the other way counts as inactive or inconclusive.
entry | Compound | TCR activator | Nrf2 ARE act | A549 tox | ClpP mod | Nrf2 block | miR-21 FLuc
1 | NNc1nc(-c2ccccc2)cc(-c2ccccc2O)n1 | 1% | 0% | 12% | -2% | ? | 18%
2 | Clc1cc(-c2ccccc2)nc(-c2ccccc2)n1 | -6% | ? | 1% | -5% | -3% | .
3 | Clc1nc(-c2ccccc2)cc(-c2ccccc2)n1 | -4%[46.1 µM] | 8.9µM* | 2% | -4% | 11% | -6%
4 | Cc1cccc(C(=O)NCC(=O)OC(C(=O)Nc2cc(C(F)(F)F)ccc2Cl)c2ccccc2)c1 (configuration not stated) | . | . | -1% | . | 8% | .
5 | O=C(NCc1ccc(F)cc1)c1cc(C2CCCCN2S(=O)(=O)Cc2ccccc2)on1 (configuration not stated) | . | 3% | . | -5% | . | .
6 | Nc1c(C(O)(C(F)(F)F)C(F)(F)F)ccc2ccccc12 | -3% | 0% | ? | 28µM* | ? | -9%
7 | c1ccc2c(c1)ccc1ccccc12 | 18% | -1% | 4% | -28% | 2% | .
8 | Cc1cc(C)n2ncc(C(=O)NC(C)C)c2n1 | . | . | 12% | . | -4% | .

# Record cards, as listed above. Screens in order: TCR activator	Nrf2 ARE act	A549 tox	ClpP mod	Nrf2 block	miR-21 FLuc
# Profile of `O=C(NCc1ccc(F)cc1)c1cc(C2CCCCN2S(=O)(=O)Cc2ccccc2)on1` (configuration not stated) : .	3%	.	-5%	.	.
# Profile of `Clc1nc(-c2ccccc2)cc(-c2ccccc2)n1` : -4%[46.1 µM]	8.9µM*	2%	-4%	11%	-6%
# Profile of `Cc1cc(C)n2ncc(C(=O)NC(C)C)c2n1` : .	.	12%	.	-4%	.
# Profile of `NNc1nc(-c2ccccc2)cc(-c2ccccc2O)n1` : 1%	0%	12%	-2%	?	18%

# Continuation:
entry | Compound | TCR activator | Nrf2 ARE act | A549 tox | ClpP mod | Nrf2 block | miR-21 FLuc
9 | FC(F)(F)c1nnc2sc(-c3cccs3)nn12 | 3% | 2% | 10% | 28µM* | -14% | -9%
10 | Cc1cc(C)c2c(=N)c3ccccc3n(CCCCCCCCn3c4ccccc4c(=N)c4c(C)cc(C)nc43)c2n1 | 12% | -1% | ? | 32µM* | ? | .
11 | CCCCn1c2c(c(=N)c3ccccc31)CCC2 | 2% | 0% | 5% | -4% | -25% | ?
12 | Cc1ccc(NC(=O)CN(C)C(=O)C(C)OC(=O)c2ccccc2NCCO)cc1 (configuration not stated) | 0% | 0% | -4% | 25µM* | -6% | .
13 | CC(OC(=O)c1ccccc1NCCO)C(=O)NCC(=O)Nc1ccc(F)c(F)c1F (configuration not stated) | -10% | 0% | 1% | 16µM* | 5% | 4%
14 | Cc1ccc(NC(=O)CN(C)C(=O)C(c2ccccc2)c2ccccc2)cc1 | 0% | -1% | -3% | 1% | 23% | .
15 | CC1CN(S(=O)(=O)c2cccc(C(=O)Nc3ccc4c(c3)CCC4)c2)CC(C)O1 (configuration not stated) | -2%[46.1 µM] | 3% | -16% | -1% | 23µM* | 5%
16 | CC1CN(S(=O)(=O)c2cccc(C(=O)NN3CCN(C)CC3)c2)CC(C)O1 (configuration not stated) | 0%[46.1 µM] | 0% | -3% | -1% | 2% | -1%
17 | Oc1ccccc1C1C=C(c2ccc3c(c2)OCO3)NC(c2cccc(F)c2)N1 (configuration not stated) | . | . | 2% | . | 6% | .
18 | Cn1c(=O)c(/C=C/c2ccccc2)nc2ccccc21 | -9%[46.1 µM] | 5µM* | 2% | ? | ? | -67%
19 | CCN(CC)C(=O)C1c2ccccc2Oc2ccccc21 | -1% | 0% | -7% | . | -10% | -4%
20 | C/C(=N\NC(=O)c1nc2ccccn2c1C)c1cccc([N+](=O)[O-])c1 | -17% | 12% | -4% | 18µM* | ? | -4%
21 | C/C(=N\NC(=O)c1nc2ccccn2c1C)c1ccc2c(c1)OCO2 | 2%[46.1 µM] | 3% | 4% | -2% | 5% | -22%
22 | CCOCCCNC(=S)NCCCNc1nc2ccc(C)cc2cc1C#N | . | . | . | . | . | -3%
23 | CN(C)CCCNC(=S)NCCNc1nc2cc3c(cc2cc1C#N)OCO3 | -2% | 2% | 14% | 4% | -23% | -11%
24 | CCOCCCNC(=S)NCCCNc1nc2cc3c(cc2cc1C#N)OCO3 | 1% | 0% | 13% | 10µM* | -11% | -7%
25 | COCCNC(=S)NCCCNc1nc2cc3c(cc2cc1C#N)OCO3 | -2% | 0% | 19% | 14µM* | 2% | -13%
26 | Cc1ccc(C(CC(=O)Nc2ccc(C)cc2C)N2Cc3ccccc3C2=O)cc1 (configuration not stated) | . | -1% | ? | 33% | ? | 22%

# Compound activity from PubChem BioAssay.
